Measured values published in paper PMC4266533, “Kinetics of the early events of GPCR signalling” (Febs Letters, 2014).

Biological target: T1, FLAG-NTS1 (neurotensin receptor type 1) reconstituted into PC:PG nanodiscs, neurotensin-bound (UniProt P20789)
T1 construct: Neurotensin (NT), 13 amino acid peptide, agonist kept in excess (5 uM) with the receptor; The receptor stood in ~10 nm lipid nanodiscs with the belt protein MSP1D1 (Addgene plasmid 20061, made in E. coli BL21(DE3)); MSP1D1 is not written as a chain; Primarily one receptor per disc (50:1 MSP1D1:FLAG-NTS1); also called FLAG-NTS1-PC:PG nanodiscs; NTS1-nanodiscs
Assay: SPR; Gα amine-coupled to a CM5 chip (Biacore T100/T200); NT-bound (5 uM NT) anti-FLAG-enriched FLAG-NTS1-PC:PG nanodiscs as analyte, serially diluted from 660 nM or 400 nM; single cycle kinetics at 30-50 ul/min; empty nanodiscs as reference, double-referenced; 50 mM Tris-HCl pH 7.4, 100 mM NaCl, 5 mM MgCl2; heterogeneous ligand binding global fit
Conditions: both partners purified

Kd: 9 nM
B1: His6-Gαi1 (alpha subunit of the inhibitory G protein Gi1) (natural protein, UniProt P63096 1-354, looked up)
chain: MGCTLSAEDKAAVERSKMIDRNLREDGEKAAREVKLLLLGAGESGKSTIVKQMKIIHEAGYSEEECKQYKAVVYSNTIQSIIAIIRAMGRLKIDFGDSARADDARQLFVLAGAAEEGFMTAELAGVIKRLWKDSGVQACFNRSREYQLNDSAAYYLNDLDRIAQPNYIPTQQDVLRTRVKTTGIVETHFTFKDLHFKMFDVGGQRSERKKWIHCFEGVTAIIFCVALSDYDLVLAEDEEMNRMHESMKLFDSICNNKWFTDTSIILFLNKKDLFEEKIKKSPLTICYPEYAGSNTYEEAAAYIQCQFEDLNKRKDTKEIYTHFTCATDTKNVQFVFDAVTDVIIKNNLKDCGLF
notes: Alpha subunit of Gi1; construct donated by Renaud Wagner (University of Strasbourg); also called His6-Gi1; His-Gαi1
